50 molecules from PubChem BioAssay AID793 (The Scripps Research Institute Molecular Screening Center, 2007) can be followed below.

Sequences of proteins named here, by UniProt entry; tags and fusion partners are left off.
UniProt P49146, whole entry: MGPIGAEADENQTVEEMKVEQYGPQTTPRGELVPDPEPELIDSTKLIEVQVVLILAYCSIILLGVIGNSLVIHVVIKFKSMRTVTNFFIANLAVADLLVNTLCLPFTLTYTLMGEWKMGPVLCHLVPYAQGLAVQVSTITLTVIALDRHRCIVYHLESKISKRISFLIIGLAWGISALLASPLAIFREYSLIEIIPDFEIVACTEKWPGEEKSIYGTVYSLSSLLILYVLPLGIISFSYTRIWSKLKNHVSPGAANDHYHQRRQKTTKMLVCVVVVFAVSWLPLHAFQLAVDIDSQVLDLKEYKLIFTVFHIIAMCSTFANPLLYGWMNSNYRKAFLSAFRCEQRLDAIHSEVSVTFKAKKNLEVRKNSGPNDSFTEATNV

The inhibition is the drop in the measured response relative to a control, in per cent.

Structures are written as SMILES. This is a selection; strong and weak results do not stand in their true shares. Activity calls are given as the source filed them. Cut-off read from the data, not from the text of the source: active = inhibition above about 17%; inactive = the rest.

In the test the target is Neuropeptide Y receptor type 2 (Homo sapiens) (UniProt P49146). The test is described as follows: NPY-Y2 receptor antagonists, primary screen, cell-based (AID 793).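 Note: 0% = vehicle with agonist challenge and 100% = reference antagonist with challenge.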 The settings on record: NPY-Y2 expressing cells, antagonist mode; at 2.7 µM; active compounds read high.
Consider `CC(C)(C)c1ccc(OP(C)(=O)Nc2ccc(SC(F)(F)F)cc2)cc1` (stereo not given), for which the inhibition is inactive: -2.53%. For `CCOC(=O)c1ccc(NP(C)(=O)Oc2ccccc2)cc1` (stereo not given), the inhibition is inactive: 1.41%. The figure for `COc1ccccc1OP(C)(=O)Nc1ccc(C)cc1` (stereo not given) is inactive: 1.54%; for `Cc1ccc(NP(C)(=O)Oc2ccccc2)c(C)c1` (stereo not given) it is inactive: 2.5%; for `COc1ccc(OP(C)(=O)Nc2cccc(F)c2)cc1` (stereo not given) it is inactive: 0.32%. In the case of `Cc1cccc(C)c1OP(C)(=O)Nc1ccc(SC(F)(F)F)cc1` (stereo not given), the inhibition is inactive: -1%. Take `CP(=O)(NC(=O)Nc1ccccc1)Oc1ccccc1` (stereo not given): the inhibition was inactive: 0.74%. The figure for `Cc1cc(C)cc(OP(C)(=O)Nc2ccc(SC(F)(F)F)cc2)c1` (stereo not given) is inactive: 1.42%.

As to `CCOP(C)(=S)SCC(=O)NC(C)C(=O)O` (stereo not given), the inhibition was inactive: 1.31%. With `CCOC(=O)c1ccc(NP(C)(=O)Oc2ccc(OC)cc2)cc1` (stereo not given) the figure was inactive: 2.81%; with `CP(=O)(Nc1ccccn1)Oc1ccc(Cl)cc1` (stereo not given), inactive: 0.46%; with `CP(=S)(Nn1cnnc1)Oc1ccccc1` (stereo not given), inactive: 4.01%. On to `CP(=O)(Nc1ccccc1Br)Oc1ccccc1` (stereo not given), for which the inhibition was inactive: 3.25%. For the molecule `CN1CCCCC1COC(=O)C1(O)c2ccccc2CCc2ccccc21` (stereo not given), the inhibition was inactive: 7.28%.

Turning to `COc1ccccc1OP(C)(=O)Nc1c(C)cccc1C` (stereo not given), the inhibition is inactive: -2.19%.

Regarding `CP(=O)(Nc1ccc(SC(F)(F)F)cc1)Oc1ccccc1` (stereo not given), the inhibition is inactive: -2.63%.

With `Cc1nc2ccc3ccccc3c2s1.O=[N+]([O-])c1cc([N+](=O)[O-])c(O)c([N+](=O)[O-])c1`, the inhibition was inactive: 5.94%. The figure for `Cc1cc(C)cc(OP(C)(=O)Nc2ccc(C)cc2C)c1` (stereo not given) is inactive: 2.7%. Consider `CCOC(=O)c1ccc(NP(C)(=O)Oc2cc(C)cc(C)c2)cc1` (stereo not given), for which the inhibition was inactive: -0.79%. In the case of `Cc1cc(C)cc(OP(C)(=O)Nc2ccccn2)c1` (stereo not given), the inhibition was inactive: 0.04%.

On to `Cc1ccc(C)c(NP(C)(=O)Oc2ccccc2)c1` (stereo not given), for which the inhibition is inactive: 1.61%. The figure for `CC1=NCCc2c1[nH]c1ccccc21.O=[N+]([O-])c1cc([N+](=O)[O-])c(O)c([N+](=O)[O-])c1` is inactive: 6.18%; for `CCOC(=O)c1ccc(NP(C)(=O)Oc2ccc(F)cc2)cc1` (stereo not given) it is inactive: 1.34%; for `CCN(CC)CCCOC(=O)C(O)(c1ccccc1)C1CCCCC1` (stereo not given) it is inactive: 6.85%. For `CP(=O)(Nc1ccccc1)Oc1ccc(F)cc1` (stereo not given), the inhibition is inactive: 0.46%.

Consider `CC(C)c1ccc(OP(C)(=O)Nc2ccc(SC(F)(F)F)cc2)cc1` (stereo not given), for which the inhibition is inactive: -0.33%. For `CP(=O)(Nc1ccccc1F)Oc1ccccc1` (stereo not given), the inhibition was inactive: 0.73%. For `O=C(OCCN1CCN(CCOCc2ccccc2)CC1)C(O)(c1ccccc1)c1ccccc1`, the inhibition is inactive: 3.48%. With `CCOP(C)(=S)SCC(=O)NC(C)(CC)C(=O)O` (stereo not given), the inhibition is inactive: -0.54%. Regarding `CP(=O)(Nc1ccc2c(c1)OCCO2)Oc1ccccc1` (stereo not given), the inhibition is inactive: 1.25%.

`Cc1ccccc1NP(C)(=O)Nc1ccccc1C`: the inhibition was inactive: 2.02%. Regarding `COc1ccc(OP(C)(=O)Nc2cccc(Br)c2)cc1` (stereo not given), the inhibition was inactive: 0.53%. On to `CN(C)CCOC(=O)C(O)(c1ccccc1)C1CCCCC1` (stereo not given), for which the inhibition is inactive: -0.69%. With `CP(=O)(OC12CC3CC(CC(C3)C1)C2)OC12CC3CC(CC(C3)C1)C2` the figure was inactive: 1.59%; with `CCOC(=O)c1ccc(NP(C)(=O)Oc2ccc(Cl)cc2)cc1` (stereo not given), inactive: 0.87%. On to `CCN(CC)CC(O)COC(=O)C(O)(c1ccccc1)C1CCCCC1` (stereo not given), for which the inhibition is inactive: 5.71%.

For the molecule `COc1ccc(OP(C)(=O)Nc2ccc(Br)cc2)cc1` (stereo not given), the inhibition is inactive: -0.81%. `CP(=O)(Oc1ccccc1)N1CCOC1=O` (stereo not given): the inhibition was inactive: 2.05%. As for `COc1ccccc1OP(C)(=O)Nc1c(C)n(C)n(-c2ccccc2)c1=O` (stereo not given), the inhibition was inactive: 2.87%. The figure for `CP(=O)(Nc1ccc(Cl)cc1)Oc1ccc(F)cc1` (stereo not given) is inactive: -1.39%; for `CC(C)(C)c1ccc(OP(C)(=O)O)cc1` it is inactive: 2.22%; for `CN(C)CCOC(=O)C(O)(c1ccccc1)C1CCCC1` (stereo not given) it is inactive: -2%. Regarding `COc1ccc(OP(C)(=O)Nc2ccccn2)cc1` (stereo not given), the inhibition was inactive: 3.2%. Turning to `Cc1c(NP(C)(=O)Oc2ccc(C(C)C)cc2)c(=O)n(-c2ccccc2)n1C` (stereo not given), the inhibition is inactive: 0.62%. With `CCc1ccc(OP(C)(=O)O)cc1` the figure was inactive: -0.32%; with `CP(=O)(Nc1ccccn1)Oc1ccccc1` (stereo not given), inactive: 2.79%; with `COc1ccccc1OP(C)(=O)Nc1ccc(C)cc1C` (stereo not given), inactive: 2.05%. For `COc1ccc(OP(C)(=O)Nc2ccccc2Br)cc1` (stereo not given), the inhibition is inactive: 1.38%.

Consider `COc1ccccc1OP(C)(=O)Nc1ccc(C)c(C)c1` (stereo not given), for which the inhibition is inactive: -0.46%. Take `Cc1nc2ccc3ccccc3c2o1.O=[N+]([O-])c1cc([N+](=O)[O-])c(O)c([N+](=O)[O-])c1`: the inhibition is inactive: 6.67%.
